Our source for the Ki and IC50 values is ChEMBL document CHEMBL1144249, “Identification of a novel class of androgen receptor antagonists based on the bicyclic-1H-isoindole-1,3(2H)-dione nucleus” (Bioorg Med Chem Lett, 2005).

Amino acid sequences for entries named in this document (tags omitted). A change or cut given only in a name is not applied to a line headed by its entry.
UniProt P10275: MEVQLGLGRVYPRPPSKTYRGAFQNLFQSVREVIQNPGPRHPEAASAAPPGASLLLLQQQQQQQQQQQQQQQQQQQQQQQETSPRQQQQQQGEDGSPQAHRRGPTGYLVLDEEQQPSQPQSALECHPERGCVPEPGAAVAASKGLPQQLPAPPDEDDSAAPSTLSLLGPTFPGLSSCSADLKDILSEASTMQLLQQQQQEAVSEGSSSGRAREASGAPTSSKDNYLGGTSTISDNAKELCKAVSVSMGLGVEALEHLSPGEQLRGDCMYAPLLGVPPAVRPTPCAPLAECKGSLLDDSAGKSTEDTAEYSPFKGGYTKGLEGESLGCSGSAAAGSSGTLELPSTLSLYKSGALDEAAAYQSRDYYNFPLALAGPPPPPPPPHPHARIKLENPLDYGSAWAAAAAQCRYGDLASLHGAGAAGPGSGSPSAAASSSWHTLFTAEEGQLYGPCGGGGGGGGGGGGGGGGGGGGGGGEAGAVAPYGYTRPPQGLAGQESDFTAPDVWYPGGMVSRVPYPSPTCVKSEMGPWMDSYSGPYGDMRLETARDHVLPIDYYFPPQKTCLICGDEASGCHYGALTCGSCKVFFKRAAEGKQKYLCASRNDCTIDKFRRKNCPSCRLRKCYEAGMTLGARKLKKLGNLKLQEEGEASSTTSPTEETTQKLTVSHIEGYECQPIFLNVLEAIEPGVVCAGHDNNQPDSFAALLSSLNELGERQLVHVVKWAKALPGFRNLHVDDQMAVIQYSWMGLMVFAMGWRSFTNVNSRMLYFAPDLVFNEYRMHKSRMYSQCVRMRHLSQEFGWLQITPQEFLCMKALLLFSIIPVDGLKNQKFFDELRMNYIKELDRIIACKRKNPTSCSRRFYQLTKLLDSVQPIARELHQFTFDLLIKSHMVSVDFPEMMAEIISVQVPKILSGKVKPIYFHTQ

SMILES strings stand for the structures.

In assay [1] the target is T1, Androgen receptor (Homo sapiens, UniProt P10275). Kind of assay: Inhibition of [3H]DHT binding to androgen receptor of MDA-453 cells.
In assay [2] the target is T1, Androgen receptor.

A word on the Ki: it is the equilibrium dissociation constant of an inhibitor or competing ligand from its target. A low value points to a stronger hold on the target. For the molecule `O=C1[C@@H]2C3C=CC(C3)[C@@H]2C(=O)N1c1ccc(F)c(Cl)c1`, the Ki on Androgen receptor [1] amounted to 177 nM.

At Androgen receptor [1], `O=C1[C@@H]2C3C=CC(C3)[C@@H]2C(=O)N1c1ccc2cccnc2c1` showed a Ki of 530 nM.

One may read the IC50 as the concentration that inhibits the measured activity by half. High values mean weaker potency in that assay, low ones greater potency in that assay. For `O=C1[C@@H]2C3CCC(C3)[C@@H]2C(=O)N1c1ccc([N+](=O)[O-])c(C(F)(F)F)c1` (stereo in doubt; 16), the IC50 on Androgen receptor [2] is 114 nM. This molecule also had a Ki at Androgen receptor [1] of 117 nM.
